Measurements from patent US10166302B2, “Labeling composition for cancer lesion” (NATIONAL CANCER CENTER, priority 2012, dated 2019).

What was measured:
[1] = Gamma imaging (animal SPECT) of nude mouse injected with [Tc-99m]Tc-ICG-HSA and [Tc-99m]Tc-ICG-MAA; assay type: in vivo; settings: 1 mCi/50 μl into buttock
Experimental: 1 mCi/50 μl of the constructed complex ([Tc-99m]Tc-ICG-HSA) was injected into a right buttock of a nude mouse, and 1 mCi/50 μl of the complex constructed in Example 4-1 ([Tc-99m]Tc-ICG-MAA) was injected into a left buttock of the nude mouse. Then, a gamma image of the nude mouse was taken by using an animal SPECT device (NanoSPECT, Bioscan) at immediately after injection (0 h) and 20 hours after injection (20 h) (FIG. 11). FIG. 11 is an image showing changes in fluorescent signals with the lapse of time for each labeling agent in the mice respectively administered with [Tc-99m]Tc-ICG-MAA and [Tc-99m]Tc-ICG-HSA which are labeling agent for a cancer lesion.

[2] = Near-infrared fluorescent signal of ICG measured by Safire II fluorescent device; assay type: physicochemical
Experimental: To investigate whether the constructed complex was normally labeled with Tc-99m, the complex was applied on instant thin layer chromatography (ITLC) and developed by using acetone as a solvent (FIG. 10). FIG. 10 is a graph showing a labeling rate of the complex in which MAA was bound to Tc-99m. […] In addition, a near-infrared fluorescent signal of ICG was measured by using Safire II fluorescent device (RFU 7,612).

[3] = Gamma imaging (animal SPECT) of nude mouse injected with [Tc-99m]Tc-MAA; assay type: in vivo; settings: 1 mCi/50 μl into left buttock, immediately after (0 h) and 20 hours after (20 h) injection
Experimental: In addition, to investigate whether the constructed complex may be used as an in vivo labeling agent, an experiment was performed as follows: the constructed [Tc-99m]Tc-MAA 1 mCi/50 μl was injected into a left buttock of a nude mouse. A gamma image of the nude mouse was taken by using an animal SPECT device (NanoSPECT, Bioscan) at immediately after injection (0 h) and 20 hours after injection (20 h) (FIG. 3). FIG. 3 is a gamma image showing whether [Tc-99m]Tc-MAA is changed or not with the lapse of time in the nude mouse injected with [Tc-99m]Tc-MAA.

[4] = Diffusion level in mouse with lapse of time (subcutaneous injection, Xenogen Lumina); assay type: in vivo; settings: nude mouse, point of injection vs two days after injection
Text: To investigate whether the results from Examples may be applied in vivo, a nude mouse was subcutaneously injected with the ICG-MAA-fibrin complex or ICG-MAA complex. […] FIG. 9 is an image showing diffusion levels of the ICG-MAA-fibrin complex and ICG-MAA complex injected into the nude mice with the lapse of time.

[5] = In vivo stability of near-infrared fluorescence of ICG-bound complexes injected into thigh of nude mice (Xenogen Lumina); settings: 50 μl into thigh
Experimental: 50 μl of four complexes constructed in Example 3-2 were respectively injected into thigh of nude mice. Then, changes in near-infrared fluorescent signals generated in each nude mouse were measured by using Xenogen Lumina device for 3 weeks (FIG. 6). FIG. 6 is an image showing changes with the lapse of time in intensity of near-infrared fluorescent signals of ICG-HSA, ICG-MAA, ICG-MAA-fibrin and ICG-glycol chitosan complexes injected into the nude mice.

[6] = Signal intensity of near-infrared fluorescence of ICG-MAA complexes at various ICG and MAA mixing ratios; assay type: physicochemical
[7] = 20 hours after injection (20 h)
[8] = immediately after injection (0 h)

[Tc-99m]Tc-ICG-MAA: complex in which MAA was labeled with ICG and radioactive isotope Tc-99m
Location of the complex (gamma image) [1, 7]: continued to persistently remain in the injected lesion
Location of the complex (gamma image) [1, 8]: remained only in the injected lesion
Near-infrared fluorescent signal of ICG [2]: 7,612 RFU

[Tc-99m]Tc-ICG-HSA: human serum albumin labeled with ICG and Tc-99m, a typical labeling agent for a cancer lesion [reference compound]
Location of the complex (gamma image) [1, 7]: diffused into adjacent tissues so that the fluorescent signal became weaker
Location of the complex (gamma image) [1, 8]: remained only in the injected lesion

[Tc-99m]Tc-MAA: radioactive isotope-bound MAA complex from thiol MAA and [Tc-99m]TcO4−
Persistence of the complex in the injected lesion (gamma image) [3]: continued to persistently remain in the injected lesion

ICG-MAA: complex in which macroaggregated albumin (MAA) is bound to indocyanine green
Size of region exhibiting near-infrared fluorescent signal (diffusion level) [4]: increased with the lapse of time
Near-infrared fluorescent signal ([5]; after three weeks): remained at a certain level
Signal intensity of near-infrared fluorescence ([6]; ICG 6.5 μM, MAA 11.5 mg/ml): 979
Signal intensity of near-infrared fluorescence ([6]; ICG 9.0 μM, MAA 11.5 mg/ml): 942
Signal intensity of near-infrared fluorescence ([6]; ICG 12.9 μM, MAA 11.5 mg/ml): 915
Signal intensity of near-infrared fluorescence ([6]; ICG 25.8 μM, MAA 11.5 mg/ml): 563
Signal intensity of near-infrared fluorescence ([6]; ICG 38.7 μM, MAA 11.5 mg/ml): 366
Signal intensity of near-infrared fluorescence ([6]; ICG 64.5 μM, MAA 11.5 mg/ml): 244
Signal intensity of near-infrared fluorescence ([6]; ICG 64.5 μM, MAA […]): 75
Signal intensity of near-infrared fluorescence ([6]; ICG 77.4 μM, MAA 11.5 mg/ml): 182
Signal intensity of near-infrared fluorescence ([6]; ICG 103 μM, MAA 11.5 mg/ml): 94
Signal intensity of near-infrared fluorescence ([6]; ICG 103 μM, MAA […]): 39
Signal intensity of near-infrared fluorescence ([6]; ICG 258 μM, MAA 11.5 mg/ml): 60
Signal intensity of near-infrared fluorescence ([6]; ICG 258 μM, MAA […]): 30
Signal intensity of near-infrared fluorescence ([6]; ICG 516 μM, MAA 11.5 mg/ml): 20
Signal intensity of near-infrared fluorescence ([6]; ICG 516 μM, MAA […]): 2
Signal intensity of near-infrared fluorescence ([6]; ICG 774 μM, MAA 11.5 mg/ml): 9
Signal intensity of near-infrared fluorescence ([6]; ICG 1032 μM, MAA 11.5 mg/ml): 4
Signal intensity of near-infrared fluorescence ([6]; ICG […], MAA 11.5 mg/ml): 931

ICG-HSA: 65 μM of ICG added and reacted to human serum albumin (HSA)
Near-infrared fluorescent signal ([5]; after one week): rapidly reduced
Near-infrared fluorescent signal ([5]; after three weeks): almost no near-infrared fluorescent signal was detected
